The other results are listed elsewhere or left out.

The test system of this test is A. baumannii ATCC 17978. Nature of the test: relative growth (fraction of control); higher = less inhibition. Conditions: 50 µM.
In the case of `O=c1nc[nH]c2nn(-c3ccccc3)nc12`, the relative growth is 0.789. As to `C[C@@H]1CN([C@H](C)CO)C(=O)c2cc(-c3ccc(C(=O)N(C)C)cc3)cnc2O[C@@H]1CN(C)C(=O)c1cccnc1`, the relative growth was determined as 0.964. In the case of `CN(C)c1nc(N)nc(Cn2ccnc2)n1`, the relative growth amounted to 1.01.

For `O=C(O)c1cncc(C(=O)O)c1`, the relative growth was 0.991. On to `O=C(CCNc1n[nH]c(=O)[nH]c1=O)NCc1ccco1`, for which the relative growth stood at 0.97. Regarding `COc1cc2c(cc1-c1coc3c4c(ccc3c1=O)OC(C)(C)CC4)OCO2`, the relative growth was found to be 0.852. For `CCCOc1ccc(C(=O)OCCN(CC)CC)cc1N.Cl`, the relative growth was 1.1.

Take `COc1ccc(-c2csc(CCN)n2)cc1`: the relative growth came out at 0.997. For `Cc1cc(C)c(C(=O)O)c(=O)[nH]1` the value was 1.12.

On to `CCNC(=O)C[C@H]1CC[C@H](NC(=O)C2CCOCC2)[C@H](CO)O1`, for which the relative growth came out at 0.858. `O=C(C[C@H]1CC[C@@H](NS(=O)(=O)c2ccc(F)cc2)[C@@H](CO)O1)N1CCC(Cc2ccccc2)CC1`: the relative growth is 1.13.

Regarding `COc1ccc(S(=O)(=O)N2C[C@@H](O)COC[C@H]3O[C@@H](CC(=O)NCc4ccc(Cl)c(Cl)c4)CC[C@@H]32)cc1`, the relative growth is 0.869. As for `O=C(C[C@H]1CC[C@@H]2[C@H](COC[C@@H](O)CN2Cc2cc(F)ccc2F)O1)N[C@@H]1CCN(Cc2ccccc2)C1`, the relative growth came out at 1.11. For the compound `C[C@H](CO)N1C[C@H](C)[C@@H](CN(C)Cc2ccccc2F)Oc2cc(C#CC3CC3)ccc2S1(=O)=O`, the relative growth is 1.12.

For the compound `COCC(=O)Nc1ccc2c(c1)C(=O)N(C)[C@@H]1CC[C@@H](CC(=O)NCc3ccc(OC)cc3)O[C@H]1CO2`, the relative growth was found to be 1.03.

Consider `O=C1c2ccccc2[C@](Cc2ccccc2I)(C(=O)NCc2ccccc2)[C@H](c2ccc(CO)cc2)N1Cc1ccccc1C(F)(F)F`, for which the relative growth worked out at 0.936.

As to `Cn1cnc(S(=O)(=O)N[C@@H]2CC[C@@H](CC(=O)NCC3CC3)O[C@H]2CO)c1`, the relative growth came out at 1.07. For `CC(C)NC(=O)N(C)C[C@H]1Oc2cc(C#Cc3ccc(F)cc3)ccc2S(=O)(=O)N([C@H](C)CO)C[C@@H]1C` the value was 0.808; for `COc1ccc([Si](C)(C)[C@H]2[C@H](CC(=O)N3CCC[C@H]3CO)O[C@@]3(C(=O)N(Cc4cccc(N5C(=O)COc6ccccc65)c4)c4ccccc43)[C@@H]2C)cc1`, 1.07; for `C[C@@H]1[C@@H]([Si](C)(C)F)[C@H](CCO)O[C@@]12C(=O)N(Cc1cccc(N3C(=O)c4cccc5cccc3c45)c1)c1ccccc12`, 1.22. In turn, `CN1C(=O)CC[C@H]1c1cccnc1` gave a relative growth of 0.906. As for `Cn1c(=O)c2[nH]c(NCCN3CCOCC3)nc2n(C)c1=O`, the figure is 0.948; as for `O=C(C[C@@H]1C=C[C@H](NC(=O)C2CC2)[C@H](CO)O1)NCCCN1CCOCC1`, 1.06. The compound `O=C(C[C@@H]1C=C[C@H](NC(=O)CN2CCOCC2)[C@@H](CO)O1)NCCc1ccccc1` registered a relative growth of 1.1. The compound `CN(C)CCCN1C(=O)[C@@]2(Cc3ccccc31)c1ccccc1C(=O)N(C1CCCCC1)[C@H]2c1ccc(CO)cc1` had a relative growth of 0.921.

In the case of `CO[C@@H]1CN(C)C(=O)c2ccc(NC(=O)C3CCOCC3)cc2OC[C@H](C)N(Cc2cccnc2)C[C@@H]1C`, the relative growth was found to be 0.98.

Compound `Cc1cc(O)c(C=O)c(O)c1C(=O)O` showed a relative growth of 1.05.

`CN1CCN(C(=O)C[C@H]2C=C[C@H](NC(=O)c3ccc4c(c3)OCO4)[C@@H](CO)O2)CC1` displayed a relative growth of 0.901. As for `C[C@@H](N)c1cnn(-c2ccccc2F)c1`, the figure is 1.12; as for `O=C(C[C@H]1CC[C@H]2[C@@H](COC[C@@H](O)CN2S(=O)(=O)c2ccccc2Cl)O1)NCc1ccccc1Cl`, 0.856; as for `Cc1cncc2cccc(S(=O)(=O)N3CC[C@H](N(C/C=C/c4ccc(Br)cc4)C/C=C/c4ccc(Br)cc4)C3)c12`, 0.882. In turn, `CCOC(=O)c1cccc(C(=O)O)n1` came in with a relative growth of 0.995.

The compound `O=c1oc2c(O)c(O)cc3c(=O)oc4c(O)c(O)cc1c4c23` showed a relative growth of 0.977.

In turn, `NC(=O)NCCC[C@H](N)C(=O)O` displayed a relative growth of 0.919. In the case of `C[C@@H]1CN([C@@H](C)CO)S(=O)(=O)c2ccc(C#CCN(C)C)cc2O[C@@H]1CN(C)Cc1ccccn1`, the relative growth was 0.987.

Take `COc1ccc(-c2coc3cc(OC(C)=O)cc(OC(C)=O)c3c2=O)cc1`: the relative growth was found to be 0.985.

`O=c1oc2cc3occ(-c4ccccc4)c3cc2c2ccccc12` registered a relative growth of 1.04. The compound `NS(=O)(=O)c1ccc(Cl)c2nonc12` had a relative growth of 1.01. As to `O=C(c1cccs1)N1c2ccccc2Sc2ccccc21`, the relative growth came out at 1.26. The compound `C[C@@H]1CN([C@H](C)CO)S(=O)(=O)c2ccc(-c3ccc(C#N)cc3)cc2O[C@H]1CN(C)C(=O)CN(C)C` showed a relative growth of 1.01. `Nc1nc(S)c2nc[nH]c2n1` had a relative growth of 0.91. The compound `CCC(=O)N1CCC[C@](C)(C(=O)NS(=O)(=O)c2ccc(S(C)(=O)=O)cc2)C1` displayed a relative growth of 1.02. As for `CC(=O)CC(c1ccccc1)c1c(O)c2ccccc2oc1=O` (stereo not given), the figure is 1.13; as for `NS(=O)(=O)c1cc2c(cc1Cl)NC(C1CC3C=CC1C3)NS2(=O)=O` (stereo not given), 0.86; as for `O=C1NS(=O)(=O)c2ccccc21`, 1.05. With `COC(=O)/C=C/c1cc(OC)c(OC)c(OC)c1`, the relative growth amounted to 1.01. Compound `C[C@H](O)C#Cc1ccc2c(c1)O[C@H](CN(C)C(=O)c1ccccc1)[C@@H](C)CN([C@@H](C)CO)S2(=O)=O` came in with a relative growth of 1. `CCCNC(=O)N(C)C[C@@H]1Oc2ncc(-c3ccc(C(=O)N(C)C)cc3)cc2C(=O)N([C@@H](C)CO)C[C@H]1C` displayed a relative growth of 0.965. `COCCNC(=O)C[C@@H]1CC[C@@H]2[C@H](COC[C@@H](O)CN2C(=O)Nc2ccccc2OC)O1` displayed a relative growth of 1.03. For `Cl.NNc1nncc2ccccc12`, the relative growth turned out to be 1.08. As for `Cc1ccc(Nc2nc3ccccc3s2)cc1Cl`, the relative growth was 1.

`COc1ccc(OC)c(S(=O)(=O)NCCO)c1` registered a relative growth of 1.02. With `COC(=O)c1c(CC[C@@H](COC(=O)NCCCCCC(=O)NO)NC(=O)N[C@@H](Cc2ccccc2)Cn2cc(-c3ccccc3)nn2)oc(C(=O)N2CCOCC2)c1C(=O)OC`, the relative growth was determined as 1.03.

In turn, `O=C(C[C@H]1C=C[C@@H](NC(=O)Cc2ccccn2)[C@H](CO)O1)NCCCN1CCOCC1` gave a relative growth of 1.05.

Compound `CN1CC(=O)N=C1NC(=O)[C@H]1CCCN(S(=O)(=O)c2ccc3c(c2)oc(=O)n3C)C1` registered a relative growth of 1.04.

`CCOc1ccc(Cc2nccc3cc(OCC)c(OCC)cc23)cc1OCC.Cl`: the relative growth amounted to 1.02. The compound `C[C@H](CC(=O)C1OC1(C)C)[C@H]1C(=O)C[C@@]2(C)C3=CCC4C(C)(C)[C@@H](O[C@@H]5OC[C@@H](O)[C@H](O)[C@H]5O)CC[C@@]45C[C@@]35[C@@H](O)C[C@]12C` (stereo not given in full) displayed a relative growth of 0.99. `C=CCC[C@H](Cc1ccc(F)cc1)C(=O)OC[C@@H](NC(=O)[C@@H](CC=C)CC(=O)N[C@H](CO)Cc1ccccc1)C(C)(C)C` returned a relative growth of 0.906. For `C[n+]1ccccc1C=NO.[Cl-]` the value was 1.18; for `O=C(C[C@@H]1CC[C@@H]2[C@H](COC[C@@H](O)CN2C(=O)c2ccc3c(c2)OCO3)O1)NCCN1CCCCC1`, 0.998. As for `C=CC1=C(C(=O)O)N2C(=O)[C@@H](NC(=O)/C(=N\O)c3csc(N)n3)[C@H]2SC1`, the relative growth was 0.151. As for `CN1C(CCl)Nc2cc(Cl)c(S(N)(=O)=O)cc2S1(=O)=O` (stereo not given), the figure is 0.964.

In turn, `C[C@@H]1CN([C@H](C)CO)S(=O)(=O)c2ccc(C#C[C@@H](C)O)cc2O[C@@H]1CN(C)C(=O)c1ccncc1` showed a relative growth of 1.08.

On to `NCCCCCc1nnc(SCC(N)=O)o1`, for which the relative growth came out at 1.19. For `OCc1ccccc1O[C@@H]1O[C@H](CO)[C@@H](O)[C@H](O)[C@H]1O` the value was 0.988; for `CC(C)CC#Cc1ccc2c(c1)O[C@H](CN(C)C(=O)Cc1cccnc1)[C@H](C)CN([C@@H](C)CO)S2(=O)=O`, 0.878; for `CC(C)(C)NCC(O)c1cc(O)cc(O)c1.O=S(=O)(O)O` (stereo not given), 1.17.

For `O=C(C[C@H]1C=C[C@@H](NS(=O)(=O)c2ccc(F)cc2)[C@H](CO)O1)N1CCC(Cc2ccccc2)CC1`, the relative growth came out at 0.79. Regarding `CC/C(=C\C(=O)O)c1ccccc1`, the relative growth is 1.05. Compound `CCS(=O)(=O)NCC[C@@H]1CC[C@@H](NS(=O)(=O)c2cccc(F)c2)[C@H](CO)O1` gave a relative growth of 0.915. For `CNCCCC12CCC(c3ccccc31)c1ccccc12.Cl`, the relative growth was determined as 0.971. Regarding `O=C(N[C@H]1CC[C@H](CC(=O)N2CCOCC2)O[C@H]1CO)c1ccc2c(c1)OCO2`, the relative growth is 0.939. Compound `O=C(C[C@@H]1CC=CC[C@@H](NC(=O)OCC2c3ccccc3-c3ccccc32)C(=O)OC[C@@H](Cc2c[nH]c3ccccc23)NC1=O)N[C@H](CO)Cc1ccccc1` had a relative growth of 0.855. As for `CC(=O)NS(=O)(=O)c1ccc(N)cc1`, the figure is 0.986; as for `O=C1CN(c2ccccc2)C=NN1`, 0.892. In turn, `O=S(=O)(NCCN(C/C=C/c1ccc(F)cc1)C/C=C/c1ccc(F)cc1)c1cccc2cnccc12` came in with a relative growth of 1.03.

In turn, `Cc1cn([C@H]2C=C[C@@H](CO)O2)c(=O)[nH]c1=O` yielded a relative growth of 0.952. The compound `Oc1ccc([C@H]2Oc3cc(O)cc(O)c3C[C@H]2O)cc1` displayed a relative growth of 0.941.

Compound `C=C[C@@](C)(O)CCC1C(=C)C[C@H](OC(C)=O)C2C(C)(C)CCCC12C` (stereo not given in full) displayed a relative growth of 1.09.

For the compound `N=C(N)c1ccc(OCCCCCOc2ccc(C(=N)N)cc2)cc1.O=S(=O)(O)CCO.O=S(=O)(O)CCO`, the relative growth came out at 0.97. The compound `O=C1CCOC[C@@H]2CCCN12` had a relative growth of 1.09. `N=C(N)N1CCc2ccccc2C1.O=S(=O)(O)O` showed a relative growth of 0.929. For `O=C(N[C@@H]1C=C[C@H](CC(=O)N2CCOCC2)O[C@@H]1CO)c1ccccn1`, the relative growth is 1. The compound `CNS(=O)(=O)c1cccs1` gave a relative growth of 1.01. `COc1cccc(-c2cn(CC[C@H]3CC[C@@H](NC(=O)CN(C)C)[C@H](CO)O3)nn2)c1`: the relative growth amounted to 1.12. In the case of `CCNC(=O)C[C@H]1CC[C@H]2[C@@H](COC[C@@H](O)CN2S(=O)(=O)c2ccc(Oc3ccccc3)cc2)O1`, the relative growth came out at 1.05. For the compound `O=C(N[C@@H]1CC[C@H](CC(=O)N2CCOCC2)O[C@@H]1CO)c1ccc2c(c1)OCO2`, the relative growth turned out to be 1.19.

`Cc1nccn1C[C@H](C)C(=O)O`: the relative growth came out at 1.01. `O=C1OCCN/C1=C/C(=O)c1ccccc1` displayed a relative growth of 1.03.

`COCC(=O)Nc1ccc2c(c1)C(=O)N(C)[C@H]1CC[C@H](CC(=O)NCc3ccc(OC)cc3)O[C@H]1CO2` came in with a relative growth of 1.05.

These data come from published antibiotic growth screens (doi:10.1038/s41589-023-01349-8).
